Assay [1] has as its target T1, Peptidyl-prolyl cis-trans isomerase NIMA-interacting 1 (Homo sapiens, UniProt Q13526). Nature of the assay: Binding affinity to Pin1 (unknown origin) assessed as Cys113-compound adduct formation at 88.8 uM after 2 hrs by IAA probe based LC-ESI-MS analysis.
Assay [2] deals with T1, Peptidyl-prolyl cis-trans isomerase NIMA-interacting 1. Nature of the assay: Ratio of Kinact to Ki for irreversible inhibition of Pin1 (unknown origin).

Chains of the proteins cited; added tags and fusions are not shown.
UniProt Q13526, whole entry: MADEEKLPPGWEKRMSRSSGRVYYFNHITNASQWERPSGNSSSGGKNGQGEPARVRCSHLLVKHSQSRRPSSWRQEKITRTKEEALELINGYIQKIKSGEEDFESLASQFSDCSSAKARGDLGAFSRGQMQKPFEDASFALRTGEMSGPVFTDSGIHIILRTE

Each structure is given as a SMILES string. Calls of active or inactive are those of the source. The rule behind the calls is not given here.

As for `O=C(/C=C/c1ccc2ccccc2c1)N[C@@H](CCC(=O)N1CCOCC1)C(=O)O`, the outcome in assay [1] was Active. In addition, in assay [2], the Ratio was determined as 0.249 M⁻¹ s⁻¹.

For the molecule `O=C(/C=C/c1ccc2ccccc2c1)N[C@H](CCC(=O)N1CCOCC1)C(=O)O`, the Ratio in assay [2] was determined as 0.017 M⁻¹ s⁻¹.

(Values after ChEMBL document CHEMBL4371086, “An irreversible inhibitor of peptidyl-prolyl cis/trans isomerase Pin1 and evaluation of cytotoxicity” (Bioorg Med Chem Lett, 2019).)
